Data taken from ChEMBL document CHEMBL4017513, “Structure-Activity Relationships of Potent, Targeted Covalent Inhibitors That Abolish Both the Transamidation and GTP Binding Activities of Human Tissue Transglutaminase” (J Med Chem, 2017).
The source made the active and inactive calls. The rule behind the calls is not given here.

Tests used:
[1] = target: T1, Protein-glutamine gamma-glutamyltransferase (Homo sapiens) (UniProt P21980); experiment: Inhibition of human TG2 binding with BODIPY GTP-gamma-S preincubated for 30 mins followed by BODIPY GTP-gamma-S addition measured after 10 mins
T1 sequence (whole entry): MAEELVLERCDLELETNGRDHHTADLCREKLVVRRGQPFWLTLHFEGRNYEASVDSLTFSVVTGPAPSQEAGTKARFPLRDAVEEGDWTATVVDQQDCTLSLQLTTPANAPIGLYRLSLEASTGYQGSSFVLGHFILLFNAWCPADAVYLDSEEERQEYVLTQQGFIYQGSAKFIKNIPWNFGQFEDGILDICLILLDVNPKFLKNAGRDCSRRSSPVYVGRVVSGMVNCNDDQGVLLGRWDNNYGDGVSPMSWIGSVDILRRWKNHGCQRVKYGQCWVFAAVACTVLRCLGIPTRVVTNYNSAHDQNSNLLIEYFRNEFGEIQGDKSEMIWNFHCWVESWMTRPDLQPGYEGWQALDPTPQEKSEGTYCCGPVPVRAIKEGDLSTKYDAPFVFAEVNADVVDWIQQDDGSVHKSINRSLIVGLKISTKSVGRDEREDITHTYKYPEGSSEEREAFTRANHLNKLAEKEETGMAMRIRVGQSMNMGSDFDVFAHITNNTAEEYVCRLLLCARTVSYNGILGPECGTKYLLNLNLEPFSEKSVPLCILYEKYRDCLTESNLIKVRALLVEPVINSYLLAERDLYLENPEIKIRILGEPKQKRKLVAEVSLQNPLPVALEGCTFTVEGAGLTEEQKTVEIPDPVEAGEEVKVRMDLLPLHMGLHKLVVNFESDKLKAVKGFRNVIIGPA

[2] = organism: Homo sapiens; experiment: Selectivity ratio of Kobs for human TG2 to Kobs for human TG1
[3] = organism: Homo sapiens; experiment: Selectivity ratio of Kobs for human TG2 to Kobs for human F13a

Compound | inhibition [1] | Selectivity ratio [2] | Selectivity ratio [3]
C=CC(=O)NCCCC[C@H](NC(=O)OCc1ccccc1)C(=O)N1CCN(S(=O)(=O)c2cccc3c(N(C)C)cccc23)CC1 | Active | 48 | 80
C=CC(=O)NCCCC[C@H](NC(=O)OCc1ccccc1)C(=O)N1CCN(C(=O)c2cccc3ccccc23)CC1 | Active |  | 
